This passage reports Ki results from ChEMBL document CHEMBL3286346, “Ultrapure ajulemic acid has improved CB2 selectivity with reduced CB1 activity” (Bioorg Med Chem, 2014).

The chains behind the UniProt entries cited, without tags or fusion partners.
UniProt P21554, whole entry: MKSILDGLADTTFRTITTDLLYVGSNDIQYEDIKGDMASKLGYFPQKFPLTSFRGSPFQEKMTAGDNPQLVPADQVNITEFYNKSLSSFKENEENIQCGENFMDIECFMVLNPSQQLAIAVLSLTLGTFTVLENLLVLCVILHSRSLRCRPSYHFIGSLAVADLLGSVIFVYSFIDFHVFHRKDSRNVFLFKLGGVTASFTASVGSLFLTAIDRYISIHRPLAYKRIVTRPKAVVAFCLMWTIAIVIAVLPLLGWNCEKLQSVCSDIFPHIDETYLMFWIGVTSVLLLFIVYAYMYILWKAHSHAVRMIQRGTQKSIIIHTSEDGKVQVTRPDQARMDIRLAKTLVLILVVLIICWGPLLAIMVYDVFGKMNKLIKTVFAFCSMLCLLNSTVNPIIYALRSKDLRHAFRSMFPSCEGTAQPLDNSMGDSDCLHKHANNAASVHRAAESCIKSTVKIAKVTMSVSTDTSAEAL

For the test, the target named is Cannabinoid receptor 1 (Homo sapiens, UniProt P21554). The experiment in a line: biochemical. It is filed as cell-based, HEK-293T.

Each structure is given as a SMILES string.

`Cc1ccc(Cn2nc(C(=O)N[C@@H]3C(C)(C)[C@@H]4CC[C@@]3(C)C4)cc2-c2ccc(Cl)c(C)c2)cc1` [SR-144528] gave an inhibition constant Ki of 400 pM. This counts as sub-nanomolar.
